Source: ChEMBL document CHEMBL1126018, “Syntheses and 5-HT2 antagonist activity of bicyclic 1,2,4-triazol-3(2H)-one and 1,3,5-triazine-2,4(3H)-dione derivatives” (J Med Chem, 1992)

Chains of the proteins cited; added tags and fusions are not shown. Lines headed by an entry give the natural chain unless they say otherwise; changes in a name come on top.
UniProt P30994: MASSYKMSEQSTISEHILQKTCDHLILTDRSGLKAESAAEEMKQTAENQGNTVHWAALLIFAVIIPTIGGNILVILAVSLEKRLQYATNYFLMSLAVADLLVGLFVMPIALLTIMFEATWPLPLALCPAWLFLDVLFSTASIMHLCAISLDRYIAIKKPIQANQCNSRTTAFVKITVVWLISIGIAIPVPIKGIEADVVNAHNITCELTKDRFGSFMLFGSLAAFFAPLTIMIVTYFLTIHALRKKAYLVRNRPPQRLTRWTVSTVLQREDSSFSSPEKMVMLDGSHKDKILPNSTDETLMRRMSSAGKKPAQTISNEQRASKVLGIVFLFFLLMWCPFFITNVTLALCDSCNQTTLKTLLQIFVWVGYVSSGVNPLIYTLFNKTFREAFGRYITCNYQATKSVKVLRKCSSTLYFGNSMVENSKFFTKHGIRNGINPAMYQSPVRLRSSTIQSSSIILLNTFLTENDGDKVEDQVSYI
UniProt P08909: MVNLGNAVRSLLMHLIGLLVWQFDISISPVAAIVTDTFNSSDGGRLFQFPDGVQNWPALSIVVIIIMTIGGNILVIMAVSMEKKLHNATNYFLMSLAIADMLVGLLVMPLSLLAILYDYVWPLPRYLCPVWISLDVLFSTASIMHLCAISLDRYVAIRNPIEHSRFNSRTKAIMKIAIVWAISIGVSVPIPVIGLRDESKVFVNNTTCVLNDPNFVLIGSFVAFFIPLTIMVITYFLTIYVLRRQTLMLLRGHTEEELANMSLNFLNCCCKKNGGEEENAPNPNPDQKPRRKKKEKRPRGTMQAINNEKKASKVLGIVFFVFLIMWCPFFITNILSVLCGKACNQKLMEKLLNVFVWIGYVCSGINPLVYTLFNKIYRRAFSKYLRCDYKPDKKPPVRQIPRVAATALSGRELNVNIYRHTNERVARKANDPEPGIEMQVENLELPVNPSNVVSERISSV
UniProt P14842: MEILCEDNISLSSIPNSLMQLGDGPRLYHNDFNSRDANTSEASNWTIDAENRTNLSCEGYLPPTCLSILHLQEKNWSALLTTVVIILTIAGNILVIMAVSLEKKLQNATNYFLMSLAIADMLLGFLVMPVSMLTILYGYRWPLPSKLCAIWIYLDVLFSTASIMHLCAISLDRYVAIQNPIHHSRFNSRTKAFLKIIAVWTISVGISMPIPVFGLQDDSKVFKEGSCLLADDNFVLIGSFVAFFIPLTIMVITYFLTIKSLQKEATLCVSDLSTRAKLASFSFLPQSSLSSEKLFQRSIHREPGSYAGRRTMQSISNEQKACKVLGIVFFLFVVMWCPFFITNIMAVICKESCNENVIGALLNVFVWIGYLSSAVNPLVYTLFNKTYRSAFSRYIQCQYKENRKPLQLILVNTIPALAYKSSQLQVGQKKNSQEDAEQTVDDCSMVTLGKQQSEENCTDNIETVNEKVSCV

Biological target: Serotonin 2 (5-HT2) receptor (Rattus norvegicus, UniProt P30994+P08909+P14842)
Experiment: In vitro antagonistic activity against the contraction induced by 5-HT through 5-hydroxytryptamine 2 receptor in rat thoracic aortic strips
Assay type: functional

- pA2: 8.8
SMILES: Cc1nc2sccn2c(=O)c1CCN1CCC(=C(c2ccc(F)cc2)c2ccc(F)cc2)CC1 [RITANSERIN]
